# AlphaSeq binding of Ab-14 light chain variants to a spike HR2 peptide

Target: peptide PDVDLGDISGINAS, taken from heptad repeat 2 (HR2) of SARS-CoV-2 spike.

Each scFv is VH, the linker GGGGSGGGGSGGGGS, VL, as in the parent Ab-14, and differs from it in the CDRs of the light chain only.
VH: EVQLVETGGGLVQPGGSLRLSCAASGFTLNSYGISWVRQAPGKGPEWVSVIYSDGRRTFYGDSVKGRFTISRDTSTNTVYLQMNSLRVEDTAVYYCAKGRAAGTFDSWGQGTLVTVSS
VL: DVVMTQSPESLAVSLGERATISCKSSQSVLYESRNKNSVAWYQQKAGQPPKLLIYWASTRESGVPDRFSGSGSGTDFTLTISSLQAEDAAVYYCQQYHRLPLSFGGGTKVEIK

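The parent was found by panning a naive human phage display library on the peptide. Designed CDR sequences, proposed from the first random library and measured here. Several design methods are mixed in this list. In AlphaSeq, yeast of one mating type display the scFv and yeast of the other type display the target. Mating (16 h, 30 °C) was followed by selection of diploids and sequencing of their barcodes. The ratio of observed to expected reads was calibrated, replicate by replicate, on BCL2-family standards whose Kd was known from biolayer interferometry. Each pool was mated in six replicate cultures.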

The parent's light chain CDRs are KSSQSVLYESRNKNSVA, WASTRES, QQYHRLPLS; each variant's own CDRs replace them letter for letter. Variants here have at most six changes. Each Kd is an estimate from the mating assay, the geometric mean of the replicates in which the pair was seen; lower is stronger. A pair that was not seen in any replicate is written "nd"; this usually means weak binding, but a binder can also be missed. The list is sorted by this average, lowest first, undetected variants last. In the paper, a design with two or fewer of six values counts as a poor binder.

CDR-L1,CDR-L2,CDR-L3,apparent Kd,replicates with signal
KISQSVGYESRNKNSVA,DASTRES,QQYHRLPLS,280 pM,6 of 6
KLSQSALYESRNKNNVA,EASTRES,QQYHRLPLS,310 pM,6 of 6
KLSQSWLYESRNKNSVA,NASTREQ,QQYHRLPLS,340 pM,6 of 6
KLPQSVLYESRNKNAVA,EASQRES,QQYHRLPLS,340 pM,6 of 6
KLPQSNLYESRNKNSVA,NASTRMS,QQYHRLPLS,430 pM,6 of 6
KLEQSHLYESRNKNSVA,EASTRES,QQYHRLPLS,500 pM,6 of 6
KLSQSVLYEERNGNSVA,NASTRES,QQYHRLPLS,570 pM,6 of 6
KLPQSQLYESRNKNSVA,GASTRES,QQYHRLPLS,590 pM,6 of 6
KHSQSVLYESRNKNSVA,DASTRES,QQYHRLPLS,600 pM,6 of 6
KISQAFLYESRNKNSVA,DANTRES,QQYHRLPLS,610 pM,6 of 6
KLSQSVWVLSRNKNSVA,NASTRES,QQYHRLPLS,680 pM,6 of 6
KLDQSVLYESRNKNSVA,HASTRES,QQYHRLPLS,700 pM,6 of 6
KLSQSVLYESRNSNSVA,EASTREV,QQYHRLPLS,710 pM,6 of 6
HQSWSVLYESRNKNSVA,NGSTREV,QQYHRLPLS,720 pM,6 of 6
KVQQSVLYESRNKNSVA,NASQRLS,QQYHRLPLS,720 pM,6 of 6
KLQQSTLYESRNKNSVA,NASQRLS,QQYHRLPLS,720 pM,6 of 6
KSSQSWLYESRNKNSVA,GASTHES,QQYHRLPLS,750 pM,6 of 6
KLSKSVLFESRNKNSVA,NASTRES,QQYHRLPLS,760 pM,6 of 6
KLQQSYLYESRNKNSVA,NASQRES,QQYHRLPLS,780 pM,6 of 6
KMSQSVMMESRNKNSVA,DASTRES,QQYHRLPLS,800 pM,6 of 6
KISQSELYMSRNANSVA,NASTRMS,QQYHRLPLS,820 pM,6 of 6
KVSQHVLYESRNKNSVA,EASTRES,QQYHRLPLC,820 pM,6 of 6
KFPQSTLYESRNKNSVA,NASTRES,QQYHRLPLS,840 pM,6 of 6
KLPQSWLYESRNKNSVA,NASTRES,QQYHRLPLS,870 pM,6 of 6
KLEQSMLYESRNKNSVA,NASTRMS,QQYHRLPLS,880 pM,6 of 6
KIIQSGLYESRNKNSVA,NASTRSP,QQYHRLPLS,890 pM,6 of 6
KLPQSEPYESRNKNSVA,NASTRES,QQYHRLPLS,920 pM,6 of 6
KSLWSELYESNNKNSVA,HASTRED,QQYHRLPLS,930 pM,6 of 6
KFSQSFLYESRNKNSVA,GASTRES,QNYHRLPLS,950 pM,6 of 6
KSSQGVLYQSRNKNSVA,GASTRES,QQYHRLPLS,980 pM,6 of 6
KLSQSMEYESRNVNSVA,SASTRES,QQYHRLPLS,1.1 nM,6 of 6
KLSQSWLYEQRNKNSVA,NASQRES,QQYHRLPLS,1.1 nM,6 of 6
KLSQSQLYESRNKNSVA,GASIRES,QQYHRLPLS,1.3 nM,6 of 6
KSSQSVLYDSRNKNSVA,NASTRES,QQYHRLPLS,1.4 nM,6 of 6
KSMQGVLYESRNKNSVA,GASQRES,QQYHRLPLS,1.4 nM,6 of 6
KSSQSGLYESRNKNSVA,SASTRES,QQYHRLPLS,1.6 nM,6 of 6
KLSQSVQYESRNKNSVA,NASTREV,QQYHRLPLS,1.6 nM,6 of 6
KLSQSVLYESRNKMSVA,DASTRES,QQYHRLPLS,1.7 nM,6 of 6
KLSQSVLYEEMNKNNVA,WASTRES,QQYHRLPLS,1.7 nM,6 of 6
KESQSEPYESRNKNSVA,NASYRMS,QQYHRLPLS,1.7 nM,6 of 6
KLSQSMLYESRMKNSVA,NASTRLS,QQYHRLPLS,1.7 nM,6 of 6
KSSISMLYESRNKNSVA,EASTRES,QQYHRLPLS,1.9 nM,6 of 6
KSSSSYLYGSRNTNSVA,EASTRES,QQYHRLPLS,2.1 nM,6 of 6
KSYQSYLYESRNKNSMA,GASTRES,QQYHRLPLS,2.3 nM,6 of 6
KSSPSVLYEQRNKNSVA,EASTREA,QQYHRLPLS,2.3 nM,6 of 6
KLSQSELYDSRNKNSVA,NASTRES,QQYHRLPLS,2.4 nM,6 of 6
KSSQSILYESVNKNSVA,HASTREE,QQYHRLPLS,2.7 nM,6 of 6
KLQQSHLYESRMKNSVA,NASQRES,QQYHRLPLS,2.9 nM,6 of 6
KLSQSVLYQSRNKNSVA,NASTRES,QDYHRLPLS,3.3 nM,6 of 6
KQSQSVLMESRNVNSVA,DASTRES,QQYVRLPLS,3.9 nM,6 of 6
KIQQLVLYESRNKNSVA,NASTRFS,QAYHRLPLS,4.2 nM,6 of 6
KSGQSVLYESRNLNSVA,AASTRES,QQYHRLPLS,4.5 nM,6 of 6
KSSQSVLPESINKNSVA,NASTRSH,QQYHRLPFS,5.0 nM,6 of 6
KSSWVYLYESRNKNSVA,GASTRES,QQYHRLPLS,5.0 nM,6 of 6
KVSQSWLMESRNKNSVA,EASTRWS,QQYHRLPLS,5.5 nM,6 of 6
KISQSVLYESRHKNSVA,WASTRES,QQYHRLPLS,8.4 nM,6 of 6
KREQSVLYEERNLNSVA,NASTRES,QQYHRLPLS,11 nM,6 of 6
KVSQSELMESRNKNSVA,EASTRQS,QQYHRLPLS,14 nM,6 of 6
KSLQSSLYESENKNSVA,WASTRES,QQYHRLPLS,15 nM,6 of 6
KSSQSVLFESRNKNSVA,WASTRES,QQYIRLPLS,17 nM,1 of 6
KSSQSVLYESENKNSVA,EAETRES,QQYHRLPLS,23 nM,6 of 6
KSQQAVLYESRNKNSVA,GASLRES,QQYHRLPLS,24 nM,1 of 6
KSSQSVLEELRNKNSVA,WASTRES,QQYHRLPLS,30 nM,3 of 6
KSSQSVLYESNNKNSVA,WASTRES,QQYCRLPLS,66 nM,4 of 6
KSSTSVLYESRNKNSVA,WASLRES,QQYHRLPLC,72 nM,2 of 6
KTSQSVLYESRNKNSVA,QRSTRES,QQYHRLPLS,86 nM,3 of 6
KSSQSVLYENRNTNSVA,WASTRES,QQYHRLPLS,110 nM,5 of 6
KSSQSVLYYSSNKNSVA,WASTRES,QQYHRLPLQ,190 nM,3 of 6
KSSGSILYESRNKNSVA,WASTRES,QQYHRLPLS,220 nM,3 of 6
KSSQSVIYNSRNKNSVA,WASTRQS,QQYHRLPLS,530 nM,5 of 6
KSSQSTLYYSRNKNSVA,WASTRES,QQYHRLPLS,nd,0 of 6
KSSQVEDYESRNKNSVA,WASTRES,QQYHELPLS,nd,0 of 6
KLRQSTLYESRNKNSVA,WPSTRIS,QQYHRLPLS,nd,0 of 6
KSSQSVLYESRNKNSVA,WASTRSN,QQYHRAPLS,nd,0 of 6
KSSQSVLGESSNKNSVA,KASTRES,QQYHRLPCS,nd,0 of 6
KSSQSVVYESRNCNSVA,WASTRES,QQYHRWPLS,nd,0 of 6
KSSQSVLDESRNHNNVA,WASTRES,QQYFRLPLS,nd,0 of 6
KLRQSINYESRNKNSVA,WASTRES,QIRHRLPLS,nd,0 of 6
KSSQSVTYESANKNSVA,WASTRES,QQYHRLPLS,nd,0 of 6

Top 7 of the variants detected in all replicates, tightest first:

| CDR-L1 | CDR-L2 | CDR-L3 | apparent Kd | replicates with signal |
|---|---|---|---|---|
| KISQSVGYESRNKNSVA | DASTRES | QQYHRLPLS | 280 pM | 6 of 6 |
| KLSQSALYESRNKNNVA | EASTRES | QQYHRLPLS | 310 pM | 6 of 6 |
| KLSQSWLYESRNKNSVA | NASTREQ | QQYHRLPLS | 340 pM | 6 of 6 |
| KLPQSVLYESRNKNAVA | EASQRES | QQYHRLPLS | 340 pM | 6 of 6 |
| KLPQSNLYESRNKNSVA | NASTRMS | QQYHRLPLS | 430 pM | 6 of 6 |
| KLEQSHLYESRNKNSVA | EASTRES | QQYHRLPLS | 500 pM | 6 of 6 |
| KLSQSVLYEERNGNSVA | NASTRES | QQYHRLPLS | 570 pM | 6 of 6 |

Nonspecific signal, from three strains lacking the peptide, appeared in 4% of pairings of all light chain designs, centred on 430 nM (5% of these signals below 38 nM); values are not corrected for it. Values of this round are not directly comparable with the first-round values of the same sequences. The parent sequence was in this pool as ten entries: three were never detected, three once, and four in most replicates, with averages from 2.2 nM to 240 nM.

Data: MIT Lincoln Laboratory AlphaSeq set, Li et al. 2023, doi:10.1038/s41467-023-39022-2, as distributed in FLAb.